Legend:
[1] = solubility of the rotaxane compound; format: physicochemical
[2] = tested on: mRNA expression of Bcl-2, Bax, Bad and Caspase-3; format: cell-based
Experimental: The mRNA expression of an apoptosis-resistant gene Bcl-2, the mRNA expression of apoptosis-promoting genes Bax and Bad, and the mRNA expression of a cell death-executing gene Caspase-3 were analyzed based on ordinary β-actin proteins. The obtained results were compared with those of the conventional anti-cancer agent 5-FU. After extraction of total RNA, each mRNA expression was examined by a PCR (polymerase chain reaction) method. Each sample was electrophoresed by agarose gel electrophoresis, and fluorescence was then measured. Thereafter, the fluorescence ratio of each sample with a sample (a control), in which no anti-cancer agents were used, was obtained.

**Q.** For “[2][bis (2-(3,5-dimethylphenylcarbonyloxy)ethyl) ammonium trifluoromethanesulfonate]-[dibenzo-24-crown-8] rotaxane”, which “solubility in organic solvent” value ([1]; organic solvent) is on record?
**A.** organic-solvent-soluble

**Q.** What about the “solubility in dimethyl sulfoxide (DMSO)” value ([1]; solvent such as DMSO) of the same substance?
**A.** can be dissolved

**Q.** And the solubility in water ([1]; water)?
**A.** water-insoluble

**Q.** And the “anti-cancer action compared with conventional anti-cancer agent 5-FU” value [2]?
**A.** stronger than the conventional anti-cancer agent

**Q.** And the “fluorescence ratio of mRNA expression (Bcl-2, Bax, Bad, Caspase-3) to control without anti-cancer agent” value ([2]; based on β-actin, applied amount of rotaxane one-tenth or less of that of 5-FU (FIG. 5))?
**A.** approximately similar to 5-FU
